# AlphaSeq binding of Ab-14 light chain variants to a spike HR2 peptide

The target is the same throughout: PDVDLGDISGINAS, from the HR2 region of SARS-CoV-2 spike.

Ab-14 is the parent antibody, in scFv form: VH, then three GGGGS repeats, then VL. The heavy chain is unchanged in all variants.
VH: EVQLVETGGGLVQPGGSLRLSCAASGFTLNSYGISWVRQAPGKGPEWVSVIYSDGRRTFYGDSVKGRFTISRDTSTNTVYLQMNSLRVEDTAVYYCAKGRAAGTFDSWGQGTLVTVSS
VL: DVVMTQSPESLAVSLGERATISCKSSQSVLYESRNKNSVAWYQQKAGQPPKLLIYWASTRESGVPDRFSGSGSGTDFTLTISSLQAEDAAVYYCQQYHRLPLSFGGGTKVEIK

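The starting antibody came from a phage panning campaign against this peptide. These sequences belong to a second round, designed from the earlier measurements on random variants of the parent. Group labels follow the data file (Ctrl: baseline library sampled from a position-specific scoring matrix, with some repeated check sequences; Rand: our label for a block that the file lists under HC and that is probably the random mutants of the ten best first-round binders; En: ensemble of fine-tuned language models; GP: Gaussian process model; HC: hill climbing; Gen: genetic algorithm; Gibbs: Gibbs sampling; a sequence that several methods proposed may carry one label only). In AlphaSeq, yeast of one mating type display the scFv and yeast of the other type display the target. Mating (16 h, 30 °C) was followed by selection of diploids and sequencing of their barcodes. Each replicate has its own calibration line, from reference interactions of the BCL2 family. Mating was done six times.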

The parent's light chain CDRs are KSSQSVLYESRNKNSVA, WASTRES, QQYHRLPLS; each variant's own CDRs replace them letter for letter. The Kd shown is the geometric mean over detected replicates; a lower Kd is a better binder. An entry "not detected" has no value in the source: the pair was not observed among the diploids in any replicate. This suggests poor binding but is not conclusive. Entries are sorted by rising average, undetected variants last. A sequence measured in both rounds can read differently, since the two assays cover different ranges. As a blank, each scFv also met three strains without target: over all light chain designs, 4% of these pairings were detected, typically at 430 nM and seldom below 38 nM. Of ten entries with the parent sequence, four were seen in most replicates (averages 2.2 nM to 240 nM), three in one and three in none, so single entries are noisy. The authors averaged sequences with at least three values out of six and counted those with two or fewer as poor binders.

CDR-L1,CDR-L2,CDR-L3,group,Kd (apparent),detected
HSSPSVLYESRNKNSVA,NASTREV,QQYHRLPLQ,GP_HC,390 pM,6 of 6
KFEQSVLYESRNKNSVA,NASTRES,QQYHRLPLS,GP_Gen,520 pM,6 of 6
KLEQSHLYESRNKNSVA,NASTREV,QQYHRLPLS,GP_Gen,540 pM,6 of 6
KLEQSWEYESRNKNSVA,NASTRES,QQYHRLPLS,GP_Gen,560 pM,6 of 6
KLQQSWGYESRNKNSVA,NASTRMS,QQYHRLPLS,GP_Gen,720 pM,6 of 6
KQSQSVLMESRNKNSVA,DASTRSS,QQYHRLPLS,GP_HC,840 pM,6 of 6
KFSQMVNTMSVSHSAVA,EMSTRPE,QQYNRLPLA,En_Gen,890 pM,6 of 6
KLNEYKHETEEKTQNIA,DQTIREP,QQYAHLPLA,En_Gibbs,900 pM,6 of 6
KFSQSDLYESRNKNSVA,EASTREQ,QQYHRLPLS,GP_Gen,1.1 nM,6 of 6
HQSPSVLYESRMKNSVA,NGSTREV,QQYHRLPLS,GP_HC,1.1 nM,6 of 6
KSSQSVLYESRNQNSVA,GASTRES,QQYHRLPHS,Ctrl,1.1 nM,6 of 6
NVDISENVGYNHKAAVA,GHDERVG,QQYYRLPLA,En_Gibbs,1.1 nM,6 of 6
KIGATLNTLSHKQNNVA,DLVTREN,QQYHRLPLS,En_Gen,1.1 nM,6 of 6
KISQSILFMSGIKNAIA,QMEMREE,QQYHRLPLS,En_HC,1.5 nM,5 of 6
KMPQGVLYESRNKNSVA,GASVRES,QQYHRLPLS,GP_HC,1.5 nM,6 of 6
KLSMLWLGESRNHNSVA,SASTRES,QQYHRLPLS,GP_Gibbs,1.6 nM,6 of 6
KLQQSELYESRNKNSVA,NASKRLS,QQYHRLPLS,GP_Gen,1.7 nM,6 of 6
KLSQSQEYESRNINSVA,NASTRLT,QQYHRLPLS,GP_Gibbs,1.8 nM,6 of 6
ALTAHHQVAIEAKNSIA,NAVMRYQ,QQYAQLPLM,En_Gibbs,2.3 nM,6 of 6
KLMGSMQYESRWKNAVA,EASTRES,QQYHRLPLS,GP_Gibbs,2.5 nM,6 of 6
KVLWSVLYESNNKNSVA,HASTREP,QQYHRLPLS,GP_HC,2.6 nM,6 of 6
KIGDTLNQLMTKRNNVA,DLVMREN,QQYFRLPLS,En_Gen,3.0 nM,6 of 6
KLQFSCLYESRNKNSVA,NASYRSS,QQYHRLPLS,GP_Gibbs,3.1 nM,6 of 6
KIGMTLNQLMHKKNNVA,DLVTREQ,QQYHRLPLS,En_Gen,4.0 nM,6 of 6
KLVNFMNRGTHHTSNIA,DAANRID,QQYYRLPLA,En_Gen,4.3 nM,6 of 6
KIGITLNTLMHQKNNVA,DLVMREQ,QQYHRLPLS,En_Gen,4.5 nM,6 of 6
KSSQSVLFESRNKNSVA,DASTRES,QQIHRLPIW,Rand,4.6 nM,6 of 6
KIGMTLNQLYEKANNVA,DLVAREN,QQYHRLPLS,En_Gen,4.9 nM,6 of 6
ILMQPYKELGAAKDNIA,DGSIRLD,QQYHRLPLV,En_Gibbs,5.4 nM,6 of 6
KMSQFVLYESRNKNSVA,SASTRES,QQYHRLPLS,Ctrl,7.7 nM,6 of 6
KVMQSKLQGQRNKNSVA,EASTRER,QQYHRLPLS,GP_Gibbs,10 nM,6 of 6
KISYMGEMFSTNHSSIA,QASTREQ,QQYHRLPLS,En_HC,11 nM,6 of 6
MISQLYNMGSFAINSVA,QASTRNA,QQYDRLPLM,En_Gen,15 nM,6 of 6
RIDAYPNMLGKNIESIA,EAALTLT,QQYARLPLS,En_Gibbs,15 nM,6 of 6
KMSQSVLYYSRNKNSVA,AASTRES,QQYHRLPLS,Ctrl,26 nM,6 of 6
KSSQSVLYESRNKNSVA,HASTRES,QHYHRLPLS,Ctrl,28 nM,6 of 6
KISMQYRYESQEKNSIA,EMSTREE,QSYHRLPLS,En_HC,34 nM,6 of 6
KISMLYNFESTNKNSIA,EMTTRES,QHYHRLPLS,En_HC,45 nM,6 of 6
KCSQSVWQEERQKNSVA,NASQREQ,QQYHRLPLS,GP_Gibbs,49 nM,6 of 6
KSHQSWLNESENKNSVA,WASTRES,QQYHRLPLQ,Ctrl,52 nM,6 of 6
MISQLYNMGTFAINSVA,QASIRNE,QQYDRLPLE,En_Gen,100 nM,5 of 6
KIGMTLNQLLHQKNNVA,DLVMRES,QQYHRLPLS,En_Gen,140 nM,6 of 6
KSSQSVLYESRNNNSVA,WASTRES,QQYHRLPLQ,Ctrl,190 nM,3 of 6
KISQSVLYESTNKNSVA,AASIRES,QQCRRLPLS,Ctrl,210 nM,6 of 6
SLGLSTMLEEYVRNSVA,NNSTREQ,QQYDRLPLS,En_Gen,250 nM,2 of 6
MIGESYGNMVMKKNSIA,DNTTRED,QQYDRLPLS,En_Gen,380 nM,6 of 6
KLYEMLAVTMEHIRNVA,DNSTREY,QQYNRLPLS,En_Gen,7.5 µM,4 of 6
KIMQSVGNESRNKNSVA,EASTRES,QQYHRLHLS,Ctrl,not detected,0 of 6
KSSQSVLYESRNCNSVA,WASVRES,QQLHQDPLS,Ctrl,not detected,0 of 6
KSSQSVLYESRNSNNVA,WASTRES,QQCHRLPLS,Ctrl,not detected,0 of 6

Values reported by Li et al. 2023, doi:10.1038/s41467-023-39022-2 (FLAb copy).